Only some compounds are listed: those with a hit (about 2.8% of all), similar ones and a draw of the others.
PglD inh: blocks C. jejuni PglD acetyltransferase activity. purified PglD enzyme, DTNB colorimetric CoA detection. AID 602405. 360,000 compounds, 0.098% hits. inhibition, % at 12.5 µM; in the data active = inhibition above about 16%, passing the limit was not always enough; inconclusive = no clear call, values can overlap the other calls
esBAF inh: blocks esBAF chromatin remodeling in mouse ES cells. Bmi1-luciferase knock-in reporter, 24 h; 100% = twice the neutral-well signal. reporter increase, % at 12.5 µM. 350,000 compounds, 2% hits. AID 602393; in the data active = activation above about 40%; inconclusive = no clear call, values can overlap the other calls;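 note: 0% = median of the plate's neutral control wells and 100% = double that signal; a rise in the Bmi1 reporter signal indicates esBAF inhibition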
Yeast UUG start: alters start codon recognition fidelity in yeast. S. cerevisiae UUG-firefly luciferase reporter, luminescence/redox ratio. activity score, % at 18.7 µM. 0.13% of 350,000 active. AID 602363;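 active = replicate mean at a twofold rise or more, about +100% in these data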;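 also: firefly luciferase made from a UUG start codon reports start codon fidelity; reporter light over untreated wells divided by growth signal over untreated wells; some hits fall short of that in this replicate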
miR-122 sensor: blocks miR-122 activity in Huh7 sensor cells; Huh7 miR-122 Renilla luciferase sensor, 48 h; neutral wells = 0, positive control = 100; 340,000 compounds, 0.3% hits; AID 602342; activation (reporter increase), % at 12.5 µM;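 active = mean replicate activation score at least 90 and every replicate individually at or above 90; inconclusive = only one of the two criteria met; inactive = neither criterion met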;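 note: higher luciferase means less miR-122 activity so hits act as miR-122 inhibitors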
Wnt bcat act: activates Wnt/beta-catenin signaling in a reporter cell assay. activator, plate reader. activation, % at 9.35 µM. 300,000 compounds, 1.2% hits; in the data active = activation above about 30%, passing the limit was not always enough; inconclusive = no clear call, values can overlap the other calls;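 note: 0% = neutral control wells and 100% = positive control wells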
MITF act: activators of MITF-driven TRPM1 promoter activity in SK-MEL-5 cells. SK-MEL-5 TRPM1-promoter luciferase, 24 h; % of positive control, neutral wells = 0. activation, % at 12.5 µM. 300,000 compounds, 0.75% hits. AID 588334;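 active = mean activation of at least 80% with every replicate also reaching 80%; inconclusive = mean reaches 80% but some replicate falls short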;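 note: 0% = neutral control wells and 100% = parthenolide positive control wells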
Active calls of the source: *; [ ] = remark or other dose.

The opening 3 entries (preview)
`CN(Cc1nc(-c2ccccn2)no1)S(=O)(=O)c1ccccc1` gave PglD inh 6, esBAF inh 2, Yeast UUG start 66, miR-122 sensor -2 and Wnt bcat act 1.
`Cc1cccc(OCc2nc(-c3nonc3N)no2)c1C` gave PglD inh 11, esBAF inh inconclusive, Yeast UUG start -12, miR-122 sensor 0, Wnt bcat act 62* and MITF act inconclusive.
Screening CS(=O)(=O)N1[C@@H](C#N)[C@@H](c2ccc(C#CC3CC3)cc2)[C@@H]1CO returned PglD inh 2, esBAF inh -4 and Yeast UUG start -6.

The list itself (from the top)
`CN(Cc1nc(-c2ccccn2)no1)S(=O)(=O)c1ccccc1` gave PglD inh 6, esBAF inh 2, Yeast UUG start 66, miR-122 sensor -2 and Wnt bcat act 1.
`Cc1cccc(OCc2nc(-c3nonc3N)no2)c1C` gave PglD inh 11, esBAF inh inconclusive, Yeast UUG start -12, miR-122 sensor 0, Wnt bcat act 62* and MITF act inconclusive.
Screening CS(=O)(=O)N1[C@@H](C#N)[C@@H](c2ccc(C#CC3CC3)cc2)[C@@H]1CO returned PglD inh 2, esBAF inh -4 and Yeast UUG start -6.
Screening C[C@@H]1CN([C@H](C)CO)C(=O)c2cc(C#C[C@@H](C)O)cnc2O[C@H]1CN(C)Cc1ccccn1 returned PglD inh 2, esBAF inh -5, Yeast UUG start -25 and miR-122 sensor 7[16.7 µM].
For CO[C@@H]1CN(C)C(=O)c2cc(NC(=O)NC(C)C)ccc2OC[C@H](C)NC[C@H]1C the results were PglD inh 2, esBAF inh 1 and miR-122 sensor -3[16.7 µM].
Screening C[C@H](CO)N1C[C@H](C)[C@@H](CN(C)S(=O)(=O)c2ccsc2)OCc2ccccc2-c2c(n(C)c3ccccc23)C1=O returned PglD inh 3 and esBAF inh -4.
Brc1ccc(-c2noc(CCc3ccccc3)n2)o1 was read as PglD inh 2, esBAF inh 50*, Yeast UUG start -6, miR-122 sensor 1, Wnt bcat act 14 and MITF act 38.
Clc1ccc(OCc2nc(-c3ccccn3)no2)c(Br)c1 was read as PglD inh 10, esBAF inh -14, Yeast UUG start -27, miR-122 sensor -4 and Wnt bcat act 11.
Screening Clc1ccccc1OCc1nc(-c2ccccn2)no1 returned PglD inh -4, esBAF inh 0, Yeast UUG start -23, miR-122 sensor -1, Wnt bcat act 39* and MITF act 24.
Cc1noc(C)c1S(=O)(=O)N(C)C[C@H]1OCCCC[C@@H](C)Oc2ccc(NC(=O)NC3CCCCC3)cc2C(=O)N([C@H](C)CO)C[C@@H]1C was read as PglD inh -1, esBAF inh 1, Yeast UUG start -11 and miR-122 sensor 11[16.7 µM].
For Cc1nc(NC(=O)c2oc3ccccc3c2C)sc1C(=O)N(C)C the results were PglD inh -2, esBAF inh 62*, Yeast UUG start -10, miR-122 sensor 5, Wnt bcat act 17 and MITF act 57.
Screening CCCCc1nnc(NC(=O)c2oc3ccccc3c2C)s1 returned esBAF inh 63*, miR-122 sensor 0, Wnt bcat act 3 and MITF act 37.
`Cc1nnc(NC(=O)c2oc3ccccc3c2C)s1` gave PglD inh 2, Yeast UUG start -23, miR-122 sensor 15, Wnt bcat act 25 and MITF act 22.
For COc1ccc(S(=O)(=O)N2CC[C@@H]3[C@H]2c2cc(C#Cc4cccnc4)ccc2N[C@@H]3CO)cc1 the results were PglD inh 1, esBAF inh 7, Yeast UUG start 4 and miR-122 sensor 4[16.7 µM].
Cc1noc(C)c1NC(=O)N(C)C[C@H]1Oc2c(NC(=O)NC3CCCCC3)cccc2C(=O)N([C@H](C)CO)C[C@H]1C was read as PglD inh 0, esBAF inh -2, Yeast UUG start 16 and miR-122 sensor 7[16.7 µM].
For CCC(=O)N1C[C@@H](C)[C@@H](OC)CN(C)C(=O)c2ccc(NC(=O)NC(C)C)cc2OC[C@H]1C the results were PglD inh -1, esBAF inh -3, Yeast UUG start 11 and miR-122 sensor 20[16.7 µM].
CC(C)CCn1cnc2c(cnn2-c2ccc(F)cc2)c1=O was read as PglD inh -5, esBAF inh 46*, Yeast UUG start -18, miR-122 sensor -4 and MITF act 23.
`CC(=O)N(C)C[C@@H]1Oc2ncc(-c3cccnc3)cc2C(=O)N([C@H](C)CO)C[C@@H]1C` gave PglD inh 0, esBAF inh 1, Yeast UUG start -6 and miR-122 sensor -3[16.7 µM].
CSc1ncc(C(=O)Nc2ccc(C(C)=O)cc2)c(-c2ccccc2)n1 was read as PglD inh 4, esBAF inh 61*, Yeast UUG start -24, miR-122 sensor 1, Wnt bcat act 16 and MITF act 42.
COCCNC(=O)c1ccc2c3n(nc2c1)-c1ccc(C)cc1CO3 was read as PglD inh 7, esBAF inh 80*, Yeast UUG start -8, miR-122 sensor -2, Wnt bcat act 43* and MITF act inconclusive.
Screening O=C(c1ccc2c3n(nc2c1)-c1ccccc1CO3)N1CCCCC1 returned PglD inh -2, esBAF inh 5, Yeast UUG start -62, miR-122 sensor -3, Wnt bcat act 20 and MITF act 20.
For Cc1ccc2c(c1)COc1c3ccc(C(=O)N[C@@H](CO)C(C)C)cc3nn1-2 the results were PglD inh -1, esBAF inh 73*, Yeast UUG start -13, miR-122 sensor -3, Wnt bcat act 34* and MITF act 114*.
Screening C[C@@H](CO)NC(=O)c1ccc2c3n(nc2c1)-c1ccccc1CO3 returned PglD inh 3, esBAF inh -47, Yeast UUG start -67, miR-122 sensor -6, Wnt bcat act 9 and MITF act 6.
`O=C(NCC1CCCO1)c1ccc2c3n(nc2c1)-c1ccccc1CO3` (stereo unspecified) gave PglD inh -2, esBAF inh 70*, Yeast UUG start -12, miR-122 sensor -2, Wnt bcat act inconclusive and MITF act inconclusive.
`CNC[C@H]1OCCCC[C@@H](C)Oc2ccc(NC(=O)Cc3ccccc3)cc2C(=O)N([C@H](C)CO)C[C@H]1C` gave PglD inh -2, esBAF inh -3, Yeast UUG start 16 and miR-122 sensor 3[16.7 µM].
`CCCCN1CCc2c([nH]c3ccccc23)C1=O` gave PglD inh -1, esBAF inh 69*, Yeast UUG start -7, miR-122 sensor 5 and MITF act 75.
Cc1ccccc1S(=O)(=O)Nc1ccc2c(c1)C(=O)N(C)[C@@H]1CC[C@H](CC(=O)O)O[C@@H]1CO2 was read as esBAF inh -1 and miR-122 sensor 32[16.7 µM].
Screening COCCNc1nc2sc3c(c2c(=O)n1Cc1ccco1)CCCCC3 returned PglD inh 3, esBAF inh 75*, Yeast UUG start -23, miR-122 sensor -10, Wnt bcat act 20 and MITF act 39.
O=c1c2c3c(sc2nc(NCCO)n1Cc1ccco1)CCCCC3 was read as PglD inh 2, esBAF inh 80*, Yeast UUG start -6, miR-122 sensor 9, Wnt bcat act 1 and MITF act 28.
CN(C)CCNc1nc2sc3c(c2c(=O)n1Cc1ccccc1)CCCCC3 was read as PglD inh -5, esBAF inh -4, Yeast UUG start -14, Wnt bcat act -7 and MITF act -4.
